Binding of CDR-mutated scFvs to a peptide of the spike HR2 region

Reference: Engelhart et al. 2022, doi:10.1038/s41597-022-01779-4. File: FLAb, binding data.

Antigen: PDVDLGDISGINAS, a 14-residue peptide of the SARS-CoV-2 spike HR2 region.

Each scFv is VL, the linker GGGGSGGGGSGGGGS, VH, as in the parent Ab-91, and differs from it in the CDRs of the heavy chain only.
VL: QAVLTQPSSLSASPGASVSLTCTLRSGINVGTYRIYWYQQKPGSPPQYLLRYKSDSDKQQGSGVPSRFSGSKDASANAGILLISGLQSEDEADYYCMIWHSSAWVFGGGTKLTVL
VH: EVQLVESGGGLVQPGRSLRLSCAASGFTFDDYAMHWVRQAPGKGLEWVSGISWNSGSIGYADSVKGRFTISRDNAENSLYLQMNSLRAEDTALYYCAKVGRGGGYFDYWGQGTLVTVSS

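The starting antibody came from a phage panning campaign against this peptide. AAYL51 was designed without a model: most single CDR substitutions and a random sample of double and triple ones. The scFvs were displayed on barcoded MATa yeast, the peptide on MATalpha yeast. Binding brings cells together so that they mate, and sequencing counts the barcode pairs among the diploids. Scores were corrected for input abundance and mapped to Kd with protein pairs of known affinity run in the same pool. There are three technical replicates.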

Each variant is given by its three heavy chain CDRs, as the data file delimits them; those of the parent are GFTFDDYAMH, GISWNSGSIGYADSVK, VGRGGGYFDY.
Kd is apparent (estimated from mating counts) and averaged on the log scale over replicates with a signal. Smaller is tighter.
A pair that was not seen in any replicate is written "not detected"; this usually means weak binding, but a binder can also be missed.
Three control strains display no target. For library AAYL51, 21% of the pairings with them gave a signal, with a median of 34 µM and one signal in twenty below 1.8 µM, so weak values seen in few replicates may be background. The control count says in how many pairings with the empty strains this scFv gave a signal.
For reference, the parent read 72 nM as the reference entry and 7.5 nM as a member of this library.

| # | CDR-H1 | CDR-H2 | CDR-H3 | apparent Kd | seen in | empty controls |
|---|---|---|---|---|---|---|
| 1 | GFTFDDEAMH | GISWGSGSIGYADSVK | VGRGGQYFDY | 19 µM | 2 of 3 | 1 of 9 |
| 2 | GFTFDDYAMH | GISVNSGSIGYADSVK | VGRCGMYFDY | 180 µM | 1 of 3 | 3 of 9 |
| 3 | GFTGDDYAMH | GISWNSPSIGYADSVK | VGRGGGYFDY | not detected | 0 of 3 | 0 of 9 |
| 4 | GFTFDDYAMH | GINWNGGSIGYADSVK | VGRGGGYFDY | 38 nM | 3 of 3 | 6 of 9 |
| 5 | GFTFDDYAKH | GISWNSGSIGYADSVK | VIRGGGYGDY | 93 µM | 1 of 3 | 3 of 9 |
| 6 | GFTFADYAMH | GGSWNSISIGYADSVK | VGRGGGYFDY | 3.2 µM | 1 of 3 | 2 of 9 |
| 7 | GFTFDDYAMH | LISWNSGSIGYADSVK | VGQGCGYFDY | 280 µM | 1 of 3 | 5 of 9 |
| 8 | GFTFDQYAMH | GISWSSGSIGYADSVK | VGRGGGTFDY | 14 nM | 3 of 3 | 1 of 9 |
| 9 | FFTFDDYAMH | GISWNTGSIGYAFSVK | VGRGGGYFDY | not detected | 0 of 3 | 0 of 9 |
| 10 | GFTFDDYAMH | GISWNSGSIGKAKSHK | VGRGGGYFDY | 4.5 µM | 2 of 3 | 2 of 9 |
| 11 | GFTFCDYAMH | GISWNSGSIGYADSVK | VGRGGGYFEM | 150 nM | 3 of 3 | 0 of 9 |
| 12 | GFTFDDYAMH | GIDWNSGSIGYADSVK | VGRGGGYFKY | not detected | 0 of 3 | 0 of 9 |
| 13 | GFTFDDYAMH | GISWNSGSIVYADSVK | WGRGGHYFDY | not detected | 0 of 3 | 1 of 9 |
| 14 | GFQSDDYAMH | GISWFSGSIGYADSVK | VGRGGGYFDY | 9.7 µM | 1 of 3 | 1 of 9 |
| 15 | GFTFDDYAMH | GISWNSGSIGYADSVK | VGRGGGYFRP | 33 nM | 3 of 3 | 0 of 9 |
| 16 | GFTFDIYAMG | GISWNSGSIGYADSVK | VGRGGGYEDY | not detected | 0 of 3 | 0 of 9 |
| 17 | GFTFDDSAMH | GISWNSGSIGYADSVK | EGRGGGYFMY | not detected | 0 of 3 | 4 of 9 |
| 18 | GKTFDDYAMH | GISWNSGSSGYADSVK | VGRGGGYFDY | not detected | 0 of 3 | 0 of 9 |
| 19 | GNTFDDYAMH | GISWNSGNIGYADSVW | VGRGGGYFDY | not detected | 0 of 3 | 0 of 9 |
| 20 | GQTFDDVAMH | GISWNSGSIGYADSVD | VGRGGGYFDY | 11 µM | 3 of 3 | 0 of 9 |
| 21 | GFTKDDFAMH | GISWNSGSIGYADSVK | VGRGGGCFDY | 220 µM | 1 of 3 | 2 of 9 |
| 22 | SFTFDDYAMH | GISWNSGSIIYADSVK | VGRNGGYFDY | not detected | 0 of 3 | 3 of 9 |
| 23 | GFTFDDEAMH | GMSWNSGSIGYADSVK | VGRGGGYPDY | not detected | 0 of 3 | 1 of 9 |
| 24 | GFTFWDYAMH | GISWNSGSMGYADSVK | VGRGGGRFDY | 120 nM | 3 of 3 | 2 of 9 |
| 25 | GFTFDGYAMH | GISTNSGSIGYADSVK | VGRGGGYFDY | 14 nM | 3 of 3 | 3 of 9 |
| 26 | GFTFDDHAMH | GISWNSGSIGYADQVK | VGRGEGYFDY | 10 µM | 1 of 3 | 3 of 9 |
| 27 | GFTFDDCAMH | GISWISGSYGYADSVK | VGRGGGYFDY | not detected | 0 of 3 | 0 of 9 |
| 28 | GFTFDDYAMH | GISKNSGSIGYADSVK | VPRGGGYFDE | 58 µM | 2 of 3 | 8 of 9 |
| 29 | TFTFDDYAMH | GISWNSGSIGTADMVK | VGRGGGYFDY | 13 µM | 2 of 3 | 3 of 9 |
| 30 | SFTFDDYAMH | GISANSGSIGYADSVK | VGRGGGYFDC | not detected | 0 of 3 | 4 of 9 |
| 31 | GFTFDDYAMH | GIFWASGSIGYADSVK | VTRGGGYFDY | 9.1 µM | 1 of 3 | 2 of 9 |
| 32 | GFTFDDYAMH | GITWNSGSYGYADSVK | VGRGGGYPDY | 36 µM | 2 of 3 | 5 of 9 |
| 33 | GFTADDYAMH | GIEPNSGSIGYADSVK | VGRGGGYFDY | not detected | 0 of 3 | 0 of 9 |
| 34 | GFTFDDYAMH | GISWNSGSIGYAGSVK | VGRGGGIFDY | 61 µM | 1 of 3 | 2 of 9 |
| 35 | GFTFDDYAMH | GISWNSGSISYADRVK | VGRGGGYFDY | 24 µM | 2 of 3 | 4 of 9 |
| 36 | GFTFDDYAMH | GISWNSGSIAYMDSVK | VGRGGGWFDY | 1.1 µM | 3 of 3 | 7 of 9 |
| 37 | GFTFKDYAMH | GISWNSGSIGYADDVK | VGRGGPYFDY | 28 µM | 3 of 3 | 2 of 9 |
| 38 | GFPFFDYAMH | GISWNSGSIGHADSVK | VGRGGGYFDY | 2.5 µM | 1 of 3 | 2 of 9 |
| 39 | GFTFDDYAMH | GISWNSGSIGYADSVK | VGGGGGYFPY | not detected | 0 of 3 | 1 of 9 |
| 40 | GFTFDDYAMH | GISWNSGSPGYADSGK | VGRWGGYFDY | not detected | 0 of 3 | 0 of 9 |
| 41 | GFTFDDYAMT | GISWNLGSIGYADSVK | VGNGGGYFDY | not detected | 0 of 3 | 1 of 9 |
| 42 | GQTFDDYAMH | GISWNSGSIGYADMVK | VGRGGGYFDQ | 7.1 µM | 3 of 3 | 8 of 9 |
| 43 | GFTFDDYPMH | GISWNSGSILYQDSVK | VGRGGGYFDY | 1.7 µM | 1 of 3 | 0 of 9 |
| 44 | GFTMDDYAMH | GISWNSGSIGMWDSVK | VGRGGGYFDY | not detected | 0 of 3 | 1 of 9 |
| 45 | GRTFDDYAMH | GISWKSGSIGYADSVK | NGRGGGYFDY | not detected | 0 of 3 | 5 of 9 |
| 46 | GFTFDDYAMH | GISWNSGSIWYADSVK | VGRGLGYFDR | 260 µM | 1 of 3 | 3 of 9 |
| 47 | GFTFDDYAMR | GPSWNSGSIGDADSVK | VGRGGGYFDY | 1.7 mM | 1 of 3 | 0 of 9 |
| 48 | GFTFDDYAMH | GISWNQKSIGYADSCK | VGRGGGYFDY | not detected | 0 of 3 | 0 of 9 |
| 49 | GFTFDDYAMH | GQSWNSGSIGYADSVK | VGRGGGYHDY | 1.3 mM | 1 of 3 | 1 of 9 |
| 50 | GFQFDDYAMH | GISWNSGSAGYADSVK | VGRGGGYFIY | 270 µM | 1 of 3 | 2 of 9 |

The opening 4 entries, copied out:

| CDR-H1 | CDR-H2 | CDR-H3 | apparent Kd | seen in | empty controls |
|---|---|---|---|---|---|
| GFTFDDEAMH | GISWGSGSIGYADSVK | VGRGGQYFDY | 19 µM | 2 of 3 | 1 of 9 |
| GFTFDDYAMH | GISVNSGSIGYADSVK | VGRCGMYFDY | 180 µM | 1 of 3 | 3 of 9 |
| GFTGDDYAMH | GISWNSPSIGYADSVK | VGRGGGYFDY | not detected | 0 of 3 | 0 of 9 |
| GFTFDDYAMH | GINWNGGSIGYADSVK | VGRGGGYFDY | 38 nM | 3 of 3 | 6 of 9 |